# Yeast mating assay B: variants of the scFv Ab-14

Values reported by Li et al. 2023, doi:10.1038/s41467-023-39022-2 (FLAb copy).

The target is the same throughout: PDVDLGDISGINAS, from the HR2 region of SARS-CoV-2 spike.

Ab-14 is the parent antibody, in scFv form: VH, then three GGGGS repeats, then VL. The light chain is unchanged in all variants.
VH: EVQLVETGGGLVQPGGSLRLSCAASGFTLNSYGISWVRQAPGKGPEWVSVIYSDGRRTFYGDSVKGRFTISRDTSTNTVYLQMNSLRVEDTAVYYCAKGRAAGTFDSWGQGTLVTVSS
VL: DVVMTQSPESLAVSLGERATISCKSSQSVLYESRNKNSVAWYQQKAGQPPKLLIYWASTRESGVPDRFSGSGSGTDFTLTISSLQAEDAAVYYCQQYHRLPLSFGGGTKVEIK

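The starting antibody came from a phage panning campaign against this peptide. Designed CDR sequences, proposed from the first random library and measured here. Several design methods are mixed in this list. Affinity was read by AlphaSeq, a pooled yeast mating assay with surface-displayed partners. Binding brings cells together so that they mate, and sequencing counts the barcode pairs among the diploids. A regression on co-assayed BCL2-family reference pairs converts the normalised counts of each replicate to an apparent Kd. Each pool was mated in six replicate cultures.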

The parent's heavy chain CDRs are GFTLNSYGIS, VIYSDGRRTFYGDSVK, GRAAGTFDS; each variant's own CDRs replace them letter for letter.
Kd is apparent (estimated from mating counts) and averaged on the log scale over replicates with a signal. Smaller is tighter.
Where no diploid with the target was found in any replicate, the entry reads "nd": below detection, most likely a poor binder, though not proof of it.
Empty control strains, which show no peptide, gave a signal in 1% of pairings with all heavy chain designs; the median was 120 nM and 95% of these signals were weaker than 7.0 nM. No background was subtracted.
A sequence measured in both rounds can read differently, since the two assays cover different ranges.
In the paper, a design with two or fewer of six values counts as a poor binder.
Of ten entries with the parent sequence, four were seen in most replicates (averages 2.2 nM to 240 nM), three in one and three in none, so single entries are noisy.

{"CDR-H1": "GFDLNEYGIS", "CDR-H2": "VIYADGVRTFYADSVK", "CDR-H3": "GEVAGTFVS", "Kd (apparent)": "110 pM", "replicates with signal": "6/6"}
{"CDR-H1": "GFDVDQYGIS", "CDR-H2": "VIYADGKRSMYADKVK", "CDR-H3": "GVIADGMMV", "Kd (apparent)": "nd", "replicates with signal": "0/6"}
{"CDR-H1": "GFTLSSYGIS", "CDR-H2": "VIYSDGRRTFYGDSVK", "CDR-H3": "GEMAGTFAQ", "Kd (apparent)": "nd", "replicates with signal": "0/6"}
{"CDR-H1": "GFTLNEYGIS", "CDR-H2": "VIYSDGRRTFYSDSVK", "CDR-H3": "GRAAGTLDS", "Kd (apparent)": "3.2 nM", "replicates with signal": "6/6"}
{"CDR-H1": "GFTLNEYGIS", "CDR-H2": "VIYSDGRRTFYGDSVK", "CDR-H3": "GVAAGTFDS", "Kd (apparent)": "2.0 nM", "replicates with signal": "6/6"}
{"CDR-H1": "GFDLQEYGIS", "CDR-H2": "VIFADGLRSAYSDKVK", "CDR-H3": "GQLNGYFSV", "Kd (apparent)": "nd", "replicates with signal": "0/6"}
{"CDR-H1": "GFSLNSYGIS", "CDR-H2": "VIYSDGRRTFYDDSVK", "CDR-H3": "GKAAGTFDV", "Kd (apparent)": "1.5 nM", "replicates with signal": "6/6"}
{"CDR-H1": "KFNLNSYGIS", "CDR-H2": "VIYSDGRRTFYADSVK", "CDR-H3": "GKNAGTFDS", "Kd (apparent)": "nd", "replicates with signal": "0/6"}
{"CDR-H1": "GFGLNEYGIS", "CDR-H2": "VIYSDGRRTFYMDSVK", "CDR-H3": "GRFAGTFDS", "Kd (apparent)": "19 nM", "replicates with signal": "6/6"}
{"CDR-H1": "GNTLNDYGIS", "CDR-H2": "VIYSDGRRTAYIDSVK", "CDR-H3": "GRAAGTFDS", "Kd (apparent)": "2.1 nM", "replicates with signal": "6/6"}
{"CDR-H1": "GFTLNEYGIS", "CDR-H2": "VIYSDGQRTFYGDSVK", "CDR-H3": "GRTAGTFDS", "Kd (apparent)": "1.2 nM", "replicates with signal": "6/6"}
{"CDR-H1": "GFTLNSYGIS", "CDR-H2": "VIYSDGRRTFYGDSVK", "CDR-H3": "GRVTGTFDT", "Kd (apparent)": "nd", "replicates with signal": "0/6"}
{"CDR-H1": "GFSLDEYGIS", "CDR-H2": "VIYADGKRTFYQDDVK", "CDR-H3": "GNVAGTFDV", "Kd (apparent)": "440 pM", "replicates with signal": "6/6"}
{"CDR-H1": "GFTLNKYGIS", "CDR-H2": "VIYSDGKRTGYGDSVK", "CDR-H3": "GIAYGTFDS", "Kd (apparent)": "400 nM", "replicates with signal": "1/6"}
{"CDR-H1": "GFDLNEYGIS", "CDR-H2": "VIYADGKRTAYADSVK", "CDR-H3": "GNEAGTFDV", "Kd (apparent)": "400 pM", "replicates with signal": "6/6"}
{"CDR-H1": "GFNLDEYGIS", "CDR-H2": "VIYADGRRTAYSDSVK", "CDR-H3": "GNVAGTFDV", "Kd (apparent)": "350 pM", "replicates with signal": "6/6"}
{"CDR-H1": "GFELNSYGIS", "CDR-H2": "VIYSDGRRTFYDDSVK", "CDR-H3": "GKQAGTFDS", "Kd (apparent)": "3.6 nM", "replicates with signal": "6/6"}
{"CDR-H1": "GFDIQDYGIS", "CDR-H2": "VIYADGSRTAYTNSVK", "CDR-H3": "GVTGAFAGL", "Kd (apparent)": "nd", "replicates with signal": "0/6"}
{"CDR-H1": "GFSLNWYGIS", "CDR-H2": "VIYSDGRRTFYGDQVK", "CDR-H3": "GRTAGTFDS", "Kd (apparent)": "230 nM", "replicates with signal": "1/6"}
{"CDR-H1": "GFTLNEYGIS", "CDR-H2": "VIYSDGRRTFYSDSVK", "CDR-H3": "GQTAGTFDS", "Kd (apparent)": "880 pM", "replicates with signal": "6/6"}
{"CDR-H1": "GFTLNQYGIS", "CDR-H2": "VIYSDGRRTFYGDSVK", "CDR-H3": "GRAAVTFDQ", "Kd (apparent)": "nd", "replicates with signal": "0/6"}
{"CDR-H1": "GFTLNSYGIS", "CDR-H2": "VIYSDGRRTFYSDSVK", "CDR-H3": "GRAAWTFDS", "Kd (apparent)": "nd", "replicates with signal": "0/6"}

Picked from the list: the 2 lowest averages where every replicate gave a value.

{"CDR-H1": "GFDLNEYGIS", "CDR-H2": "VIYADGVRTFYADSVK", "CDR-H3": "GEVAGTFVS", "Kd (apparent)": "110 pM", "replicates with signal": "6/6"}
{"CDR-H1": "GFNLDEYGIS", "CDR-H2": "VIYADGRRTAYSDSVK", "CDR-H3": "GNVAGTFDV", "Kd (apparent)": "350 pM", "replicates with signal": "6/6"}